Experimental findings from PubChem BioAssay AID1347071 (National Center for Advancing Translational Sciences (NCATS), 2019) are described below.

The list shows a part of the results, in another mix than the full data. Activity calls are given as the source filed them. Calls follow the shape of the dose curve; as a rule, active = well fitted activation curve with a large enough effect; inconclusive = small, poorly fitted or top-dose-only effect; inactive = no such curve, though single readings can be large or run the other way.

The nature of the assay: qHTS for compounds that reverse cellular toxicity of Amyloid beta (A-beta) peptide in yeast: Primary Screen. Also: nearly all actives have a fitted effect of over 55% in size. As to conditions: yeast expressing A-beta42, growth rescue, OD600, 48 h, 0% DMSO, 100% iron-clioquinol control; at 46.1 µM (top of the series). The source says: The A-beta peptide is produced by the processing of the amyloid precursor protein (APP) by two proteases, beta and gamma secretases. […] A-beta42 is regarded as the most amyloidogenic form due to its hydrophobicity; however, precisely how A-beta42 induces neurotoxicity is unclear. To understand further this biology and its potential therapeutic implications for human neurodegenerative disease, a quantitative high-throughput screen for compounds that reverse the cellular toxicity of the A-beta peptide was developed. A yeast based screen was used because it recapitulates the salient feature of protein mis-folding disorder accurately. This cell-based phenotypic screen provides a significant, unbiased advantage by letting the compounds and models inform us which proteins or pathways are most relevant. The ideal chemical candidates would therefore have activity in both our primary yeast and secondary neuronal toxicity assays, as well as in mouse models. They will be valuable tools for dissecting diverse protein homeostasis pathologies and could potentially become the focus for future pre-clinical development. For this luminescence assay, inhibition of A-beta rescues the toxic effect in the yeast cell, resulting in increase of signals and the desired phenotype of "Activator". This screen is run against the Molecular Libraries Small Molecule Repository (MLSMR) and the NCGC Sytravon Library Collection.
NIH Chemical Genomics Center [NCGC]
NIH Molecular Libraries Probe Centers Network [MLPCN]
Assay Submitter (PI): Susan Lindquist, Whitehead Institute, Massachusetts Institute of Technology
[1] Vassar R,et al (1999). Beta-secretase cleavage of Alzheimer's amyloid precursor protein by the transmembrane aspartic protease BACE. Science. 286: 735-741.
[2] Yan R, et al (1999). Membrane-anchored aspartyl protease with Alzheimer's disease beta-secretase activity. Nature. 402: 533-536.
Two and a half microliter / well of yeast growth medium were dispensed in a 1536 assay plate. Compounds were pinned using the Kalypsys robotic system followed by addition of 2.5 uL / well yeast solution. The assay plates were incubated at 30 C. After 48 hr, the absorbance signal at 600 nm was obtained using the PerkinElmer ViewLux plate reader to assess yeast growth. The data was normalized to the positive control of an equimolar mixture of ferric chloride (FeCl3) and clioquinol and to the negative control DMSO.
(In general: In qHTS, concentration-response curves come from the screen itself.)
With `CCOC(=O)C(CC)C1=NC(C)(C)Cc2ccccc21.O=[N+]([O-])c1cc([N+](=O)[O-])c(O)c([N+](=O)[O-])c1` (centres undefined), the growth rescue was inactive: 5.98%.
As to `CC(C)(C)OC(=O)N1CCC(N(C(=O)c2ccccc2)c2ccc(Cl)cc2)CC1`, the growth rescue is inactive: -2.64%.
Consider `O=C(NCC1(N2CCOCC2)CCCCC1)c1ccc([N+](=O)[O-])cc1`, for which the growth rescue is inactive: -8.15%.
As for `O=C(NCC1(N2CCOCC2)CCCCC1)c1ccccc1[N+](=O)[O-]`, the growth rescue was inactive: -21.3%.
As for `N#Cc1ccc(C(=O)NCC2(N3CCCCC3)CCCCC2)cc1`, the growth rescue is inactive: -14.9%.
The same measure for `CC(C)(C)n1nnnc1C(c1cccc2ccccc12)N1CCC(n2c(=O)[nH]c3ccccc32)CC1` (centres undefined): inactive: 5.37%; for `O=C(NCC1(N2CCOCC2)CCCCC1)c1ccccc1`: inactive: -22.1%; for `Cc1cc(N(CCCl)CCCl)ccc1C=O`: inactive: -17%.
The same measure for `CCCN1CCC(Nc2cc(OC)cc(OC)c2)CC1`: inactive: 9.74%; for `O=c1[nH]c2ccccc2n1C1CCN(C(c2ccccc2)c2nnnn2C2CCCC2)CC1` (centres undefined): inactive: -7.95%; for `c1ccc(CN2CCC(Nc3ccccc3)CC2)cc1`: inactive: 12.8%.
The same measure for `CN(C)C1(CNC(=O)c2cccc(C#N)c2)CCCCC1`: inactive: 0.125%.
For the compound `O=c1[nH]c2ccccc2n1C1CCN(C(c2ccnc3ccccc23)c2nnnn2C2CCCC2)CC1` (centres undefined), the growth rescue is inactive: 18%.
With `COc1ccc(C(=O)NCC2(N3CCOCC3)CCCCC2)cc1OC` the figure was inactive: -8.77%; with `O=c1[nH]c2ccccc2n1C1CCN(C(c2cccs2)c2nnnn2C2CCCCC2)CC1` (centres undefined), inactive: 13.5%; with `O=C(NCC1(N2CCOCC2)CCCCC1)c1cc(Br)ccc1Cl`, inactive: 0.671%.
The same measure for `COc1cc(C(=O)NCC2(N3CCOCC3)CCCCC2)cc(OC)c1C`: inactive: -10.2%; for `CCCCn1nnnc1C(c1ccccc1)N1CCC(n2c(=O)[nH]c3ccccc32)CC1` (centres undefined): inactive: -4.56%.
With `CCCCn1nnnc1C(c1cccc(OC)c1OC)N1CCC(n2c(=O)[nH]c3ccccc32)CC1` (centres undefined) the figure was inactive: -15.1%.
On to `O=c1[nH]c2ccccc2n1C1CCN(C(c2cccs2)c2nnnn2C2CCCC2)CC1` (centres undefined), for which the growth rescue was inactive: 8.75%.
With `O=C(O)c1cccc(Nc2c([N+](=O)[O-])cc([N+](=O)[O-])cc2[N+](=O)[O-])c1` the figure was inactive: 10.5%; with `CCc1cc(C(=O)NCC2(N3CCCCC3)CCCCC2)sc1C`, inactive: 7.98%.
As for `O=C(OC1CN2CCC1CC2)C1c2ccccc2C=Cc2ccccc21` (centres undefined), the growth rescue was inactive: 0%.
`CCOC(=O)N1CCC(Nc2ccc(C)cc2)CC1`: the growth rescue is inactive: 13.5%.
With `COc1cccc(C(c2nnnn2C(C)(C)C)N2CCC(n3c(=O)[nH]c4ccccc43)CC2)c1OC` (centres undefined) the figure was inactive: 0.0267%; with `O=c1[nH]c2ccccc2n1C1CCN(C(c2cc3ccccc3o2)c2nnnn2C2CCCC2)CC1` (centres undefined), inactive: 6.82%.
The same measure for `CCCOc1ccc(C(=O)NCC2(N(C)C)CCCCC2)cc1`: inactive: 17.8%.
With `NN(c1ccccc1)C1CCN(CCc2ccccc2)CC1` the figure was inactive: -20.6%; with `O=C(O)C1(Nc2ccccc2)CCN(Cc2ccccc2)CC1`, inactive: 4.75%; with `CC(C)(C)OC(=O)N1CCC(Nc2ccccc2)CC1`, inactive: -16.8%.
Consider `CN1CCC(Nc2ccc(F)c(Cl)c2)CC1`, for which the growth rescue is inactive: -19.7%.
Consider `CCOc1ncccc1C(=O)NCC1(N2CCOCC2)CCCCC1`, for which the growth rescue was inactive: -1.54%.
The same measure for `CN1CCC(Nc2ccc(Cl)cc2)CC1`: inactive: 0.0871%.
For `CCC(CO)(C(=O)OC1CN2CCC1CC2)c1ccccc1` (centres undefined), the growth rescue was inactive: 6.88%.
As for `COc1cccc(C(=O)N(c2cc(C)cc(C)c2)C2CCN(C(=O)OC(C)(C)C)CC2)c1`, the growth rescue was inactive: 5.11%.
The same measure for `COc1cc(OC)cc(C(=O)NCC2(N3CCOCC3)CCCCC2)c1`: inactive: 1.92%; for `COc1cccc(C(c2nnnn2C2CCCC2)N2CCC(n3c(=O)[nH]c4ccccc43)CC2)c1OC` (centres undefined): inactive: 3.96%.
The same measure for `COc1cc(C(=O)NCC2(N3CCOCC3)CCCCC2)cc(OC)c1OC`: inactive: -8.86%; for `Cc1ccc(NC2(C#N)CCN(Cc3ccccc3)CC2)cc1`: inactive: -14.1%; for `Fc1ccccc1NC1CCN(Cc2ccccc2)CC1`: inactive: -0.059%.
With `Cc1ccc(Nc2c([N+](=O)[O-])cc([N+](=O)[O-])cc2[N+](=O)[O-])cc1` the figure was inactive: -40.6%; with `Cc1ccc(C(=O)NCC2(N3CCCCC3)CCCCC2)o1`, inactive: 1.91%.
With `COc1cc(OC)cc(C(=O)NCC2(N3CCCCC3)CCCCC2)c1`, the growth rescue is inactive: -1.25%.
In the case of `O=c1[nH]c2ccccc2n1C1CCN(C(c2ccnc3ccccc23)c2nnnn2C2CCCCC2)CC1` (centres undefined), the growth rescue was inactive: 7.92%.
As to `CCC(c1nnnn1C1CCCCC1)N1CCC(n2c(=O)[nH]c3ccccc32)CC1` (centres undefined), the growth rescue is inactive: 2.86%.
The same measure for `CN(C)C1(CNC(=O)c2ccc(C(C)(C)C)cc2)CCCCC1`: inactive: -13%.
The same measure for `COc1cccc(C(c2nnnn2C2CCCCC2)N2CCC(n3c(=O)[nH]c4ccccc43)CC2)c1OC` (centres undefined): inactive: 4.03%; for `CC(=O)N(c1ccccc1)C1CCNCC1`: inactive: -2.96%.
With `CN(C)c1ccc(C(=O)NCC2(N3CCCCC3)CCCCC2)cc1` the figure was inactive: -17.6%; with `Cn1c(=O)[nH]cc(N(CCCl)CCCl)c1=O`, inactive: 1.38%; with `O=C(NCC1(N2CCCCC2)CCCCC1)c1ccco1`, inactive: -1.51%.
In the case of `CC(C)(C)c1ccc(C(=O)NCC2(N3CCOCC3)CCCCC2)cc1`, the growth rescue was inactive: 8.03%.
With `Cc1ccccc1C(=O)NCC1(N(C)C)CCCCC1`, the growth rescue is inactive: -5.98%.
On to `CCN1CCC(Nc2cccc(F)c2)CC1`, for which the growth rescue is inactive: 11.9%.
For `COc1ccc(C(c2nnnn2C2CCCCC2)N2CCC(n3c(=O)[nH]c4ccccc43)CC2)cc1` (centres undefined), the growth rescue was inactive: 2.38%.
With `CC(C)(C)n1nnnc1C(c1ccnc2ccccc12)N1CCC(n2c(=O)[nH]c3ccccc32)CC1` (centres undefined) the figure was inactive: -20.6%; with `Cc1ccccc1NC1(C#N)CCN(Cc2ccccc2)CC1`, inactive: -6.23%; with `CCOC(=O)N1CCC(Nc2ccc(F)cc2)CC1`, inactive: 14.1%.
The same measure for `COc1ccc(NC2CCN(CCc3ccccc3)CC2)c(OC)c1`: inactive: 8.83%.
